Data: patent publication US4604406A, “N-[6-methoxy-5-(perfluoroalkyl)-1-naphtholyl]-N-methylglycines and their thionaphthoyl analogs” (Ayerst, McKenna & Harrison, Inc., priority 1984, dated 1986)

Columns and labels:
[1] = system: dulcitol accumulation in the lens; assay: % lowering dulcitol accumulation in vivo, lens (L), galactosemic rats; parameters: species or system rat (Sprague-Dawley); conditions: 4 days
Excerpt: (§1) Such experiments are exemplified hereinbelow after the listing of the following general comments pertaining to these experiments:
(§2) (a) Four or more groups of six male rates, 50-70 g, Sprague-Dawley strain, were used. The first group, the control group, was fed a mixture of laboratory chow (rodent laboratory chow, Purina) and glucose at 20% (w/w %) concentration. The untreated galactosemic group was fed a similar diet in which galactose is substituted for glucose. The third group was fed a diet prepared by mixing a given amount of the test compound with the galactose containing diet. The concentration of galactose in the diet of the treated groups was the same as that for the untreated galactosemic group.
(b) After four days, the animals were killed by decapitation. The eyeballs were removed and punctured with a razor blade; the freed lenses were rolled gently on filter paper and weighed. The sciatic nerves were dissected as completely as possible and weighed. Both tissues were frozen and can be kept up to two weeks before being analyzed for dulcitol.
(§3) Only two minor reagent changes were made: (a) The rinsing mixture was an aqueous 5% (w/v) trichloroacetic acid solution and (b) the stock solution was prepared by dissolving 25 mg of dulcitol in 100 ml of an aqueous trichloroacetic acid solution. [N.B.: For each experiment the average value found in the tissue from rats fed the glucose diet was subtracted from the individual values found in the corresponding rat tissue to obtain the amount of polyol accumulated.]
(§4) The figures under L, N and D represent the percentage decrease of dulcitol accumulation in the tissues of the lens, sciatic nerve and diaphragm, respectively, for treated rats as compares to untreated rats.

[2] = system: dulcitol accumulation in the diaphragm; assay: % lowering dulcitol accumulation in vivo, diaphragm (D), galactosemic rats; parameters: species or system rat (Sprague-Dawley); conditions: 4 mg/kg/day in galactose diet, 4 days
Excerpt: as §1, §2, §3, §4

## COc1ccc2c(C(=O)N(C)CC(=O)O)cccc2c1C(F)(F)C(F)(F)F [Compound 2, N-[[6-Methoxy-5-(pentafluoroethyl)-1-naphthalenyl]carbonyl]-N-methylglycine]
[1]; 29 mg/kg/day in galactose diet
  % lowering dulcitol accumulation in vivo, L: 0%

## COc1ccc2c(C(=S)N(C)CC(=O)O)cccc2c1C(F)(F)F [Compound 7, N--[[5-(Trifluoromethyl)-6-methoxy-1-naphthalenyl]thioxomethyl]-N--methylglycine, reference compound]
[1]; 4 mg/kg/day in galactose diet
  % lowering dulcitol accumulation in vivo, L: 0%
[1]; 11 mg/kg/day in galactose diet
  % lowering dulcitol accumulation in vivo, L: 14%
[2]
  % lowering dulcitol accumulation in vivo, D: 80%
